Assay results reported in US20060002929A1.

Target: cOX40L expressed on CHO cells (cynomolgus monkey) (UniProt G7NVH7)
Assay: FACS neutralisation on CHO cells expressing cOX40L, percent inhibition of the binding of biotinylated cFc-OX40R (5 µg/ml); Ab C CHO-expressed lot

B1: Ab C (antibody, V domains shown)
VH: QVQLVESGGGVVQPGRSLRLSCAASGFTFSFYGMHWVRQAPGKGLEWVAVIWYDGSNKYYADSVKGRFTISRDNSKNTLYLQMNSLRAEDTAVYYCARGGYDYVWGSYRRNSDFDYWGQGTLVTVSS
VL: DIVMTQTPLSSPVTLGQPASISCRSSQSLVHSDGNTYLSWLQQRPGQPPRLLIYKKFNRFSGVPDRFSGSGAGTDFTLKISRVEAEDVGVYYCMQATQIPLTFGPGTKVDIKR
Question: With B1 as the binder, how does the IC50 (read off the curve) read?
Answer: 5 µg/mL
